The values below come from patent publication US6420532B1, “Method of obtaining compositions comprising Y2 specific compounds” (Synaptic Pharmaceutical Corporation, priority 1994, dated 2002).

Amino acid sequences for entries named in this document (tags omitted). A change or cut given only in a name is not applied to a line headed by its entry. Residues count along the entry.
UniProt Q9ERC0, 1-381: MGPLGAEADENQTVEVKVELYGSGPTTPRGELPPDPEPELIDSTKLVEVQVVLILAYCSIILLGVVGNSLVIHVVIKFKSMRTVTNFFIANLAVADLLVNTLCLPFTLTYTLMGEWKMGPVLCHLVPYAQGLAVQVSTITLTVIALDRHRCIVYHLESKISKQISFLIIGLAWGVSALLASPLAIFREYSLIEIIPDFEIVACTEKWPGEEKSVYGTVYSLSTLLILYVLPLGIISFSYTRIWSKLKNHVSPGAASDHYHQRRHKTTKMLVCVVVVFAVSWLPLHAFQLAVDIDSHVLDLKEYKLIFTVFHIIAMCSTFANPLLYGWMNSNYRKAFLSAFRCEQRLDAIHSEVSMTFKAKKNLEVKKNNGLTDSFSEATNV
UniProt P49146, whole entry: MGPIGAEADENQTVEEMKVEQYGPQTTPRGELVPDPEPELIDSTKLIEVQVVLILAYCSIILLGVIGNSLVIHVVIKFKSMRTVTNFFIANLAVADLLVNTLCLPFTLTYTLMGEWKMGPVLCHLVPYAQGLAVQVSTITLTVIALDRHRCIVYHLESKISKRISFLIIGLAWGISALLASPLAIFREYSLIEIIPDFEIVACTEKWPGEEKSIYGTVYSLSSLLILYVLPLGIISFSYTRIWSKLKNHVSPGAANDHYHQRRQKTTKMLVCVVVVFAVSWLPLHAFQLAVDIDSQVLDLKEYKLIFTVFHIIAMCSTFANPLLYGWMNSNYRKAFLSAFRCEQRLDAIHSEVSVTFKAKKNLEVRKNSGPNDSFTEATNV
UniProt P25929, whole entry: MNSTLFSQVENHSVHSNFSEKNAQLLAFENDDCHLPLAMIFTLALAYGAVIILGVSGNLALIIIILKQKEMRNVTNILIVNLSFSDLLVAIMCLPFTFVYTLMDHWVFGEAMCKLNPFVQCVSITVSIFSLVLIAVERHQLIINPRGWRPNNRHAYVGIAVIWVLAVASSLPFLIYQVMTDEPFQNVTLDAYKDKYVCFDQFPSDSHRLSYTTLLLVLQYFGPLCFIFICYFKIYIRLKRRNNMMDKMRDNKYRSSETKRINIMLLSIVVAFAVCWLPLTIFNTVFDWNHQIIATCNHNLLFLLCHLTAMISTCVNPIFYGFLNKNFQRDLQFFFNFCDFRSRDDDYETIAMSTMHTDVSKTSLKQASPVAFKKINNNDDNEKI
UniProt P50391: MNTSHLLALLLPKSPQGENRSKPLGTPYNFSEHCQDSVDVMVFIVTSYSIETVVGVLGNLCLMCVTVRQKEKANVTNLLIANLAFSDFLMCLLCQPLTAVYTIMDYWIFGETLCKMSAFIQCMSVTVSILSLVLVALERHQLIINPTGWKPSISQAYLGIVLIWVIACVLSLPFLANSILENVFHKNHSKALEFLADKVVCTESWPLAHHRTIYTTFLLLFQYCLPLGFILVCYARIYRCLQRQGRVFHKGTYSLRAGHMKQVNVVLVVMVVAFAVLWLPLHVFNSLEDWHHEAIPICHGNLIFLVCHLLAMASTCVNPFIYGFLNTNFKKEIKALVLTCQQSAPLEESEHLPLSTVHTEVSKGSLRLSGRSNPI

As a reminder, the Ki is a dissociation constant, usually derived from enzyme kinetics or from competition with a known ligand.

One assay addresses rat Y2a receptor (Rattus norvegicus, UniProt Q9ERC0). As to conditions: read-out: apparent Kd, one-site model.
For assay [1], the target named is T1, human Y2 receptor (Homo sapiens, UniProt P49146). Briefly: 125I-PYY binding to membranes from 293 stable clone (293-hY2-10). The arrangement: expressed in transfected cells. Particulars: read-out: apparent Kd.
Assay [2] deals with T1, human Y2 receptor. As to the kind of experiment: 125I-PYY binding to membranes from stably transfected NIH-3T3 cells (N-hY2-5). As to conditions: read-out: apparent Kd. More on the design: expressed in transfected cells. The text has this:
Two positive clones were identified and isolated for further study (293 clone #10 and NIH-3T3 clone #5). […] The data serve to emphasize that the receptor/G protein interactions for a given receptor clone can vary depending upon the resident G proteins in the host cell line (93). Additional factors such as receptor density and receptor reserve can also play a role (92).

Assay [3] concerns the target T2, human Y1 receptors (Homo sapiens, UniProt P25929).
T2 construct: expressed in transfected cells; host or cells: COS-7 (transient, DEAE-dextran)
As to the kind of experiment: Association time course and saturation binding of 125I-PYY, COS-7 membranes expressing human Y1.

The target of assay [4] is T3, CG-13 receptors (human Y2 receptor) (Homo sapiens, UniProt P49146).
T3 construct: expressed in transfected cells; host or cells: COS-7 (transient, DEAE-dextran)
Briefly: Competitive displacement of 125I-PYY, membranes of COS-7 cells transiently expressing CG-13 (human Y2). The assay is classed as binding. Particulars: read-out: Y2 (Ki); Table 4; unit inferred, nM.

In assay [5] the target is T2, human Y1 receptors. Briefly: Competitive displacement of 125I-PYY, membranes of COS-7 cells transiently expressing human Y1. It counts as binding. Particulars: read-out: Y1 (Ki); Table 4; unit inferred, nM. In general terms: Loss of bound radioactivity is the signal in a displacement assay; it reports binding, not function.
For another assay, the target named is T4, human Y4 receptors (Homo sapiens, UniProt P50391).
T4 construct: expressed in transfected cells; host or cells: COS-7 (transient, DEAE-dextran)
As to the kind of experiment: Competitive displacement of 125I-PYY, membranes of COS-7 cells transiently expressing human Y4. The assay is classed as binding. As to conditions: read-out: Y4 (Ki); Table 4; unit inferred, nM.

Regarding ^125I-PYY, the Kd at rat Y2a receptor worked out at 0.26 nM; at human Y2 receptor [1] it was 0.003 nM; at human Y2 receptor [2], 0.008 ± 0.002 nM; at human Y1 receptors [3], 0.062 nM.
Regarding melanostatin [NPY, frog (melanostatin)], the Ki is 0.87 nM in assay [4], 0.07 nM at human Y1 receptors [5] and 1.2 nM at human Y4 receptors.
